Antibody variant affinities, Ab-95 light chain, assay 2

Values reported by Engelhart et al. 2022, doi:10.1038/s41597-022-01779-4 (FLAb copy).

All variants were tested on one target, the spike HR2 peptide PDVDLGDISGINAS (SARS-CoV-2).

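The parent was found by panning a naive human phage display library on the peptide. Variants in AAYL52 differ from the parent at up to three CDR positions; double and triple changes were sampled at random. The assay is AlphaSeq: two haploid yeast populations carry antibody and antigen on their surface. Pairs that bind mate more often; barcode pairs of the diploids are counted by sequencing. The ratio of observed to expected reads was calibrated, replicate by replicate, on BCL2-family standards whose Kd was known from biolayer interferometry. The assay was run in three technical replicates.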

Parent scFv Ab-95: VH joined to VL by the linker GGGGSGGGGSGGGGS. Changes lie in the light chain CDRs alone.
VH: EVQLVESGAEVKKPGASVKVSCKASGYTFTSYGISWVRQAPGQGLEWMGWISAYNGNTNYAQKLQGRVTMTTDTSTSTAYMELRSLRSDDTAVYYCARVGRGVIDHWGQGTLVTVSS
VL: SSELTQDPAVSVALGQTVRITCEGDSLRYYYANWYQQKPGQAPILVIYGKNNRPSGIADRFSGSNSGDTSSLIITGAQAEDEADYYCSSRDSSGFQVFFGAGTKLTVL

Each variant is given by its three light chain CDRs, as the data file delimits them; those of the parent are EGDSLRYYYAN, GKNNRPS, SSRDSSGFQVF.
Values are apparent Kd, the geometric mean of the replicates that gave a signal; lower means stronger binding.
Where no diploid with the target was found in any replicate, the entry reads "not detected": below detection, most likely a poor binder, though not proof of it.
As a blank, each scFv also met three strains without target: over library AAYL52, 28% of these pairings were detected, typically at 8.2 µM and seldom below 800 nM.
For reference, the parent read 200 nM as the reference entry and 180 nM as a member of this library.

CDR-L1,CDR-L2,CDR-L3,apparent Kd,detected
FGDSLRYYYCN,GKNNAPS,SSRDSSGFQVF,not detected,0 of 3
EGDSLRYYYAN,GKNYRPS,STRDSIGFQVF,11 µM,1 of 3
EGDSLRYYYAN,GKNNRPC,SSRLSSGKQVF,not detected,0 of 3
EGDSLRYYYAE,GMINRPS,SSRDSSGFQVF,14 µM,2 of 3
EGDSLRYYYHN,GKNNRPS,SSRDSNGFQVN,46 µM,1 of 3
EGASDRYYYAN,GKNNRPS,SSRDSSGQQVF,1.1 µM,1 of 3
RFDSLRYKYAN,GKNNRPS,SSRDSSGFQVF,3.3 µM,2 of 3
EGDSRLYYYAN,GKNNRPS,SSRDSVGFQVF,not detected,0 of 3
EGDTLRYYYAN,GKNNRPE,SSRDSSGFQVC,86 nM,3 of 3
EGDSLRYYYAN,GKNNRRS,SNRDLSGFQVF,18 µM,1 of 3
EGDSLRYYYAN,GFNNRYY,SSRDSSGFQVF,not detected,0 of 3
EGDSLRYYYAN,GKNNRFS,IGRDSSGFQVF,60 µM,2 of 3
EGDSLRYYYVN,GKMNRPS,SSRDSSGDQVF,1.3 µM,2 of 3
EGDSLRYYYAN,GKWNRPS,LSRCSSGFQVF,13 µM,2 of 3
EGDSLRYYYAN,GKNNREI,SSMDSSGFQVF,not detected,0 of 3
QGISLRYYYAN,GKNNRPS,SSRDCSGFQVF,680 nM,2 of 3
EGDSLRYYYAN,GKRNRPS,SSRDSSCFQVI,3.2 µM,2 of 3
EGDSHRYYYAN,GKNNRPS,SSLDSSGFQGF,not detected,0 of 3
EGDSLRYYLAN,GKNNRPL,SSRDVSGFQVF,390 nM,3 of 3
EGDSLRYYYAY,GKNNRPS,SCMDSSGFQVF,7.6 µM,3 of 3
CPDSLRYYYAN,GKNNRWS,SSRDSSGFQVF,not detected,0 of 3
KGISLRYYYAN,GKNNRPS,SSRYSSGFQVF,1.2 µM,3 of 3
EGDSLRYYYAR,GKNNRPS,SSIDSSGFQQF,not detected,0 of 3
EGDSLRYPYAN,GKNNRPS,SSRDSSGFQEF,2.1 µM,1 of 3
EGDSLRYYYAN,WWNNRPS,WSRDSSGFQVF,66 µM,2 of 3
EGDSLRYYYAA,GKINEPS,SSRDSSGFQVF,38 µM,2 of 3
EGDSLRPYYAN,GKNNRPS,SPRESSGFQVF,2.9 µM,2 of 3
EGDILRYYYAN,GKNNRLS,SSRDSSGFQVF,not detected,0 of 3
EGRSLRYYYAN,GKNNPPS,SSRDQSGFQVF,21 µM,3 of 3
EGDSLRKYYAN,GKNNRPS,SSCDSSVFQVF,390 nM,1 of 3
EGDSLRYIYAN,GKNNRPS,SSRDSSTVQVF,17 µM,2 of 3
EHDSLRYYYAT,GKNNRPS,SSRDSKGFQVF,not detected,0 of 3
EADSLRAYYAN,GKNNRPS,SSRDSSGFQVP,not detected,0 of 3
EGDSLRYYYAN,GKNNFRS,SYRDSSGFQVF,91 µM,1 of 3
EGDSLRYYYAN,TKNNRPS,SSRDSSGFGKF,not detected,0 of 3
EGDSLVAYYAN,GKSNRPS,SSRDSSGFQVF,11 µM,3 of 3
EGDSLIYYYAF,GKNNRPS,SSRFSSGFQVF,3.9 µM,2 of 3
EGDSLRYYYAY,GKNNRPS,SRRGSSGFQVF,7.0 µM,1 of 3
EMDSLRYDYAR,GKNNRPS,SSRDSSGFQVF,190 nM,3 of 3
EGDRLRYYLFN,GKNNRPS,SSRDSSGFQVF,33 µM,1 of 3
EYDSLDYYYAN,GKNNRPS,SSRDSSGFQSF,6.4 µM,3 of 3
EGDSLRYYYAN,GNNNRGS,SSRASSGFQVF,410 nM,3 of 3
EGDSLRYYYAN,GKNNRPS,SSNDSSWAQVF,2.7 µM,3 of 3
EGDSLRYYYAN,GQNNRPC,KSRDSSGFQVF,22 µM,1 of 3
EGHSLRYYYAN,GKNNRPW,SSRDSTGFQVF,530 nM,3 of 3
EGDCLSYYYAN,GKNNRPS,SSRDSSGFQVF,21 µM,2 of 3
EGDSLRYYYAN,FKNNRPS,SSRWSSGFQVF,4.7 µM,2 of 3
EGDSLRYYHAN,GNNNRPS,SSRDSIGFQVF,71 nM,3 of 3
EGDSLRQYYAN,GRNNRPS,WSRDSSGFQVF,310 nM,3 of 3
EGDSLTYYWAN,GKNNRPS,SSRDSAGFQVF,2.6 µM,2 of 3
CGDSLRYYYAN,GKNNEPS,SSRSSSGFQVF,19 µM,3 of 3
EGDSLRYQYAN,GTNNRPS,SSRDSSGFQFF,40 nM,3 of 3

The 4 strongest on average among those seen in every replicate, once more:

{"CDR-L1": "EGDSLRYQYAN", "CDR-L2": "GTNNRPS", "CDR-L3": "SSRDSSGFQFF", "apparent Kd": "40 nM", "detected": "3 of 3"}
{"CDR-L1": "EGDSLRYYHAN", "CDR-L2": "GNNNRPS", "CDR-L3": "SSRDSIGFQVF", "apparent Kd": "71 nM", "detected": "3 of 3"}
{"CDR-L1": "EGDTLRYYYAN", "CDR-L2": "GKNNRPE", "CDR-L3": "SSRDSSGFQVC", "apparent Kd": "86 nM", "detected": "3 of 3"}
{"CDR-L1": "EMDSLRYDYAR", "CDR-L2": "GKNNRPS", "CDR-L3": "SSRDSSGFQVF", "apparent Kd": "190 nM", "detected": "3 of 3"}